Laboratory results from PubChem BioAssay (Tox21).
Several values for one entry are separate records, joined by “and”; a condition that tells them apart may be missing. Identical values can stand only once. The list shows a part of the results, in another mix than the full data. Records with an inconclusive call do not appear. Activity calls are given as the source filed them. Unless noted, calls come from the whole dose curve; as a rule, active = well fitted curve in the direction sought with a large enough effect in the repeat runs; inconclusive = weak or mixed curves; inactive = no such curve, though single readings can be large; an effect the other way counts as inactive or inconclusive.

Protein sequences, listed by entry. Tags and fused reporters are not part of them.
UniProt P08659, whole entry: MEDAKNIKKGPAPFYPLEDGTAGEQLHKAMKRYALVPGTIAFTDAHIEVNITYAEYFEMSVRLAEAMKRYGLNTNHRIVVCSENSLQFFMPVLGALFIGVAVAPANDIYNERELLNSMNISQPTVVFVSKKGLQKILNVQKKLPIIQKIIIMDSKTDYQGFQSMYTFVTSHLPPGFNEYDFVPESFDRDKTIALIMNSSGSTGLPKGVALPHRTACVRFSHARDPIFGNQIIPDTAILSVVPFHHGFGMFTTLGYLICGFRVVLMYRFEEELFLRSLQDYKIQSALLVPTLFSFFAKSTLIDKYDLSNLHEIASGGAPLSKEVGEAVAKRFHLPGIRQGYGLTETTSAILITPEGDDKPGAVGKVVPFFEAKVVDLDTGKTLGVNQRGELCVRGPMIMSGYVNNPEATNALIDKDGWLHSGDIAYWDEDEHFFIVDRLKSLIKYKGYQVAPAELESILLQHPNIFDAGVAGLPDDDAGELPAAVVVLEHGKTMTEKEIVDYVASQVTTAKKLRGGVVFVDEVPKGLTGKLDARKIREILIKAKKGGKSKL
UniProt Q14994, whole entry: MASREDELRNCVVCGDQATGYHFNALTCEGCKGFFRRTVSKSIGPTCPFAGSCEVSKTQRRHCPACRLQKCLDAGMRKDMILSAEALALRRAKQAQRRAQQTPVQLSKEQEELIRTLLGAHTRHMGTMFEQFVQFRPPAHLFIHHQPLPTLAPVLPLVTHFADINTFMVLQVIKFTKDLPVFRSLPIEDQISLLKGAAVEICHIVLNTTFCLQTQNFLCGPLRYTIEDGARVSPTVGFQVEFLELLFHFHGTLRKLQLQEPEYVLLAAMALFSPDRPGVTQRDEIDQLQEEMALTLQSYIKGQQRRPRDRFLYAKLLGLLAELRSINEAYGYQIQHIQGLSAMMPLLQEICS

Assays:
[1] = qHTS assay to identify small molecule agonists of the retinoic acid receptor (RAR) signaling pathway (AID 1159553); details: C3RL4 RARE luciferase reporter, agonist, 6 h; at 73.3 µM (top of the series)
Excerpt: National Center for Advancing Translational Sciences [NCATS] NIH Chemical Genomics Center [NCGC] U.S. Environmental Protection Agency [EPA] National Institutes of Environmental Health Sciences [NIEHS] National Toxicology Program [NTP] Assay overview: All-trans Retinoic acid (atRA) is the potent natural metabolite of retinol and plays an important role in normal embryonic development and maintenance of cellular phenotype in adult animals. atRA is the activating ligand for the retinoic acid receptors (RARs) which form heterodimers with retinoid X receptors (RXRs) on the retinoic acid response element (RARE). Through activation of the RAR/RXRs nuclear receptors, atRA regulates the transcription of a large number of protein-coding genes and regulatory RNAs. Intracellular levels of atRA are controlled by the retinol signaling pathway (RSP) that regulates the biosynthesis and catabolism of atRA to maintain physiological levels. Chemicals that interfere with the RSP can cause abnormal intracellular levels of atRA and therefore are potential developmental toxicants. To assess compounds for the potential adverse effect on embryonic development through interfering with retinol signaling, a cell-based RARE luciferase reporter gene assay was used. C3RL4 cell line (OARSA/CFSAN/FDA, Laurel, MD) was used to screen Tox21 10K compound library for identifying activators of the RSP.
Assay Protocol Summary: C3RL4 cells were seeded at 1,000/well in 5 uL of assay medium into white solid 1,536-well tissue culture plates (Greiner Bio-One North America Inc. Monroe, NC) using a Multidrop Combi (Thermo Scientific, Waltham, MA) dispenser. After incubation at 37 C and 5% CO2 for an overnight, 23 nL of compounds dissolved in DMSO, positive control or DMSO only were transferred by a Pintool station (Kalypsys, San Diego, CA). After 6 hr incubation at 37 C and 5% CO2, 5 uL of Amplite Luciferase reagent (AAT Bioquest Inc. Sunnyvale, CA) was added to each assay plate using a Flying Reagent Dispenser (FRD) (Aurora Discovery, San Diego, CA). Luminescence was quantified on a ViewLux plate reader (PerkinElmer, Waltham, MA) after 30 min incubation at room temperature.

[2] = target: Luciferin 4-monooxygenase (Photinus pyralis) (UniProt P08659); assay: qHTS assay to identify small molecule inhibitors of firefly luciferase (AID 1224835); note: nearly all actives have a fitted effect of over 25% in size; details: purified P. pyralis luciferase, luminescence inhibition
Procedure, shortened: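 Quantitative HTS format; KM concentrations of both substrates. Purified P. pyralis FLuc activity quantified from luminescence images.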

[3] = target: Nuclear receptor subfamily 1 group I member 3 (Homo sapiens) (UniProt Q14994); assay: qHTS assay to identify small molecule agonists of the constitutive androstane receptor (CAR) signaling pathway (AID 1224839); note: nearly all actives have a fitted effect of over 15% in size; note: potency is the fitted concentration of half-maximal effect;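 for activation: HepG2 cells stably carrying human CAR and a CYP2B6 luciferase reporter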
[4] = qHTS assay to identify small molecule antagonists of the retinoid acid receptor (RAR) signaling pathway - cell viability counter screen (AID 1159551); details: C3RL4 cells viability, ATP luminescence (CellTiter-Glo), 6 h; at 92.4 µM (top of the series); note: nearly all actives have a fitted effect of over 35% in size
Procedure, shortened: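 Viability of C3RL4 cells is quantified from ATP by luminescence after 6 h treatment at 37 C with compounds and 1 uM retinol.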

[5] = qHTS assay to identify small molecule antagonists of the retinoic acid receptor (RAR) signaling pathway (AID 1159552; note: nearly all actives have a fitted effect of over 50% in size); details: C3RL4 RARE luciferase reporter, retinol-stimulated, 6 h; at 92.4 µM (top of the series)
Procedure, shortened: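 Luminescence from a RARE luciferase reporter in C3RL4 cells served as read-out. Cells received compounds together with 1 uM final retinol and incubated 6 hr at 37 C before detection reagent was added for 30 min at room temperature.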

[6] = qHTS assay to identify small molecule antagonists of the estrogen related receptor (ERR) signaling pathway from Tox21 library - cell viability counter screen (AID 1224834); details: ERR reporter cells viability, CellTiter-Fluor, 17.5 h; at 92.4 µM (top of the series); note: nearly all actives have a fitted effect of over 30% in size
Excerpt: (§1) National Center for Advancing Translational Sciences [NCATS]
(§2) NIH Chemical Genomics Center [NCGC]
(§3) U.S. Environmental Protection Agency [EPA]
(§4) National Institutes of Environmental Health Sciences [NIEHS]
(§5) National Toxicology Program [NTP]
(§6) U.S. Food and Drug Administration [FDA]
Estrogen related receptors (ERRs), the first orphan nuclear receptors discovered, play an important role in the control of cellular energy metabolism. ERRs are required for high-energy production in response to the environmental challenges. ERR-alpha was also identified as an adverse marker for breast cancer progression; ERR-alpha-positive tumors have a poor prognosis. To screen and to identify environmental compounds that perturb the ERR signaling pathways could provide valuable information for potential therapeutic or preventive measures in the treatment of metabolic disease. To differentiate true ERR antagonists or agonist from cytotoxic substances, the assay is multiplexed with cell viability assay.
Tox21 Assay Protocol Summary:
The ERR cells were dispensed at 2,000 cells/5 ul/well in 1536-well white plates using a Multidrop dispenser. […] After 30-minute incubation at 37 C/5% CO2, the fluorescence intensity in the plates was measured using a ViewLux plate reader.

[7] = qHTS assay to identify small molecule agonists of the constitutive androstane receptor (CAR) signaling pathway - cell viability counter screen (AID 1224836); details: HepG2-CYP2B6-hCAR viability, CellTiter-Fluor, 23 h, PK11195 added to every well; at 92.4 µM (top of the series); note: nearly all actives have a fitted effect of over 45% in size
Procedure, shortened: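 Viability read-out: CellTiter-Fluor fluorescence after 23 h compound exposure at 37 C/5% CO2 in double-stable HepG2-CYP2B6-hCAR cells, with PK11195 present at 0.75 uM final; compounds tested in 15-point titration.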

[8] = qHTS assay to identify small molecule antagonists of the constitutive androstane receptor (CAR) signaling pathway - cell viability counter screen (AID 1224837); details: HepG2-CYP2B6-hCAR viability, CellTiter-Fluor, 23 h, co-treated with 50 nM CITCO; at 92.4 µM (top of the series); note: nearly all actives have a fitted effect of over 45% in size
Procedure, shortened: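 In quantitative HTS format, compounds at 15 concentrations were applied to HepG2 cells double-transfected with hCAR and CYP2B6-2.2kb under 50 nM CITCO stimulation; live-cell protease activity was read after 23 hr via CellTiter-Fluor.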

[9] = target: Nuclear receptor subfamily 1 group I member 3 (Homo sapiens) (UniProt Q14994); assay: qHTS assay to identify small molecule antagonists of the constitutive androstane receptor (CAR) signaling pathway (AID 1224838); details: HepG2-CYP2B6-hCAR luciferase, CITCO-stimulated, 24 h; at 92.4 µM (top of the series);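 note: HepG2 cells stably expressing hCAR with CYP2B6 luciferase reporter stimulated by CITCO; nearly all actives have a fitted effect of over 40% in size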
[10] = qHTS assay to identify small molecule antagonists of the estrogen related receptor signaling pathway with the pleiotropic PPARgamma coactivator (PGC) from Tox21 10K library - cell viability counter screen (AID 1224840; active = well fitted cell-killing curve with a large enough effect in the repeat runs, not every such curve was filed as active; note: nearly all actives have a fitted effect of over 40% in size); details: PGC/ERR reporter cells viability, CellTiter-Fluor, 17.5 h; at 92.4 µM (top of the series)
Excerpt: as §1, §2, §3, §4, §5, §6
Estrogen related receptors (ERRs), the first orphan nuclear receptors discovered, play an important role in the control of cellular energy metabolism. ERRs are required for high-energy production in response to the environmental challenges. The pleiotropic PPARgamma coactivator (PGC) is a major partner of ERR and a key regulator in energy homeostasis. Together they have been implicated in the etiology of metabolic disorders such as Type 2 diabetes and metabolic syndrome. ERR-alpha was also identified as an adverse marker for breast cancer progression; ERR-alpha-positive tumors have a poor prognosis. To screen and to identify environmental compounds that perturb the ERR and PGC/ERR signaling pathways could provide valuable information for potential therapeutic or preventive measures in the treatment of metabolic disease. […]
The PGC/ERR cells were dispensed at 2,000 cells/5 ul/well in 1536-well white plates using a Multidrop dispenser. […] After 30-minute incubation at 37 C/5% CO2, the fluorescence intensity in the plates was measured using a ViewLux plate reader.
% is set by controls: 0 for no effect and ±100 for the full control effect.

CN(CCCl)CCCl
inactive: activation [1] -5.92% and -13.9% | activity change, negative = inhibition ([2]; at 52.9 µM (top of the series)) -0.251% | activity change, negative = inhibition ([2]; at 115 µM (top of the series)) 0.739% | Potency [3]

O=[N+]([O-])C(Cl)(Cl)Cl
inactive: activity change, negative = cytotoxicity [4] -0.298% | activity, negative = inhibition [5] 14.6% | activation [1] -1% | viability change, negative = cytotoxic [6] 2.05% | activity change, negative = inhibition ([2]; at 115 µM (top of the series)) 2.78% | viability change, negative = cytotoxic [7] -0.0017% | activity change, negative = cytotoxicity [8] 0.594% | activity, negative = inhibition [9] 0.0531% | Potency [3] | viability change, negative = cytotoxic [10] 2.94%

CCC(=O)N(c1ccccc1)C1(COC)CCN(CCc2cccs2)CC1
inactive: activity change, negative = cytotoxicity [4] -2.05% | activity, negative = inhibition [5] -9.17% | activation [1] -3.98% | activity change, negative = inhibition ([2]; at 115 µM (top of the series)) 0.89% | activity, negative = inhibition [9] 13.3%
active: Potency [3] 30.6 µM

CCC(=O)N(c1ccccc1)C1(COC)CCN(CCn2nnn(CC)c2=O)CC1
inactive: activity change, negative = cytotoxicity [4] -1.65% | activity, negative = inhibition [5] 10.5% | activation [1] -0.195% | viability change, negative = cytotoxic [6] 1.83% | activity change, negative = inhibition ([2]; at 115 µM (top of the series)) 2.32% | viability change, negative = cytotoxic [7] -3.66% | activity change, negative = cytotoxicity [8] 3.4% | activity, negative = inhibition [9] 9.11% | Potency [3] | viability change, negative = cytotoxic [10] 4.41%
